Laboratory results taken from patent US10266537B2, “3-acetylenyl-pyrazole-pyrimidine derivative, and preparation method therefor and uses thereof” (Si Chuan University, priority 2015, dated 2019).

Chains of the proteins cited; added tags and fusions are not shown. Residues count along the entry.
UniProt P12931, 1-530 limits assumed: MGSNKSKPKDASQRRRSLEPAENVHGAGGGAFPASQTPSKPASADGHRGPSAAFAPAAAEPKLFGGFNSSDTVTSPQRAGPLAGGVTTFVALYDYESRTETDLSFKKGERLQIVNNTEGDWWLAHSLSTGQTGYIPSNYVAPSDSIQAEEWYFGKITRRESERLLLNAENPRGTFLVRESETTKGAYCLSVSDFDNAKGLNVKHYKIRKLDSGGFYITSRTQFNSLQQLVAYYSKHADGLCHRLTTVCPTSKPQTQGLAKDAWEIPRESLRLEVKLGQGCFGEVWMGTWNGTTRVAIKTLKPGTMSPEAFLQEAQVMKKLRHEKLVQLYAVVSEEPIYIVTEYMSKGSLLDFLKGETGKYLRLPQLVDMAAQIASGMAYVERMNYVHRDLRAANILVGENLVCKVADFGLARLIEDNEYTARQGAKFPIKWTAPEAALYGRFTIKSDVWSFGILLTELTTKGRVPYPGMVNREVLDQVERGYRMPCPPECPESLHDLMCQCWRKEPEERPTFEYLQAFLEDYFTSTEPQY

Legend:
MDA-MB-231 = assay: Cell proliferation inhibition assay (MTT); assay type: cell-based, human; conditions: read-out: Proliferative inhibitory activity MDA-MB-231 (IC50 class), 72 hours
MDA-MB-435 = assay: Cell proliferation inhibition assay (MTT); assay type: cell-based, human; conditions: read-out: Proliferative inhibitory activity MDA-MB-435 (IC50 class), 72 hours
c-Src(1-530) = c-Src(1-530) (Homo sapiens (Human), UniProt P12931); assay: Kinase inhibition assay (KinaseProfiler, 33P-ATP); conditions: ATP at Km

Row | SMILES | pIC50 (MDA-MB-231) | pIC50 (MDA-MB-435) | pIC50 (c-Src(1-530))
1 | Cc1ccc(C(=O)Nc2ccc(CN3CCN(C)CC3)c(C(F)(F)F)c2)cc1C#Cc1nn(C(C)C)c2ncnc(N)c12 | > 7.00 | > 7.00 | 8.70
2 | Cc1ccc(NC(=O)Nc2cccc(C(F)(F)F)c2)cc1C#Cc1nn(C(C)C)c2ncnc(N)c12 | 6.30 to 7.00 | < 6.00 | 7.70

pIC50: −log10 of the molar value.
